Experimental findings from patent publication US20230151003A1, “COMPOUNDS AND METHODS OF USE” (Exelixis, Inc., priority 2020, published 2023) are described below.

By UniProt entry, the sequences of proteins in these tests, tags left out. Residues count along the entry.
UniProt P30530, 26-894 limits assumed: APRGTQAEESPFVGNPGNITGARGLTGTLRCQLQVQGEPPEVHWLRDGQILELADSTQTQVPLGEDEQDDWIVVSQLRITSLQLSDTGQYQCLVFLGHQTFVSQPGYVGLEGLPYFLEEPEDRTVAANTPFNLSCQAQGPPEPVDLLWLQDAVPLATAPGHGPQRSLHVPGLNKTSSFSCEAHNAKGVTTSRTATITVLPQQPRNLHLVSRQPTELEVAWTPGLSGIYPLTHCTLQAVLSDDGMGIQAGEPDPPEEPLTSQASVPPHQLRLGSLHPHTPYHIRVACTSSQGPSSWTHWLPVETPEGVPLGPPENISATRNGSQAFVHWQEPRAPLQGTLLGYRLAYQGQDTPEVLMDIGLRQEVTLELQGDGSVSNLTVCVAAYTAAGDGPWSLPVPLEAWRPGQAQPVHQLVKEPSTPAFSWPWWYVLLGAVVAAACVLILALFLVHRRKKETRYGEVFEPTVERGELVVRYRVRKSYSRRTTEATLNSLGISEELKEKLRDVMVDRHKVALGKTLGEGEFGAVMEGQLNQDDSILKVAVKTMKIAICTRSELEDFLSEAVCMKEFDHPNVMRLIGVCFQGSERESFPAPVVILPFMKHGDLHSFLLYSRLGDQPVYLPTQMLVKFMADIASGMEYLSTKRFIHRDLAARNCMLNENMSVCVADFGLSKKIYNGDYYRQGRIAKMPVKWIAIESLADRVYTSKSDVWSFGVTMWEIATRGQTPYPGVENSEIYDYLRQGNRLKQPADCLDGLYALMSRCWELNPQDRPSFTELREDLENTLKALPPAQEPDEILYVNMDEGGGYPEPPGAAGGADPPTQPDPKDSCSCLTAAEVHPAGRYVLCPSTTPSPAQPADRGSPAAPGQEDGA
UniProt P30530, 473-894 limits assumed: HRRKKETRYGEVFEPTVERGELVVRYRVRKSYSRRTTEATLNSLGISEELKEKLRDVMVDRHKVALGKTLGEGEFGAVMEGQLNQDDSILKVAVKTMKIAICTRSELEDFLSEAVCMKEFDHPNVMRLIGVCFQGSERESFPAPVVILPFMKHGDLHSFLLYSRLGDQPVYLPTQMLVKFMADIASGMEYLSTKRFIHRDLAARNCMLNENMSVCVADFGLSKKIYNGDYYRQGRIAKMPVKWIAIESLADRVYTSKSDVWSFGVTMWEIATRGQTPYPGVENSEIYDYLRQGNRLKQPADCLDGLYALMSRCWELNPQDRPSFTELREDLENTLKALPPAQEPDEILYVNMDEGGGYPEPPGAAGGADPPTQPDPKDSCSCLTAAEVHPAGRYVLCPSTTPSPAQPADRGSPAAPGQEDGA
UniProt Q12866, 21-999 limits assumed: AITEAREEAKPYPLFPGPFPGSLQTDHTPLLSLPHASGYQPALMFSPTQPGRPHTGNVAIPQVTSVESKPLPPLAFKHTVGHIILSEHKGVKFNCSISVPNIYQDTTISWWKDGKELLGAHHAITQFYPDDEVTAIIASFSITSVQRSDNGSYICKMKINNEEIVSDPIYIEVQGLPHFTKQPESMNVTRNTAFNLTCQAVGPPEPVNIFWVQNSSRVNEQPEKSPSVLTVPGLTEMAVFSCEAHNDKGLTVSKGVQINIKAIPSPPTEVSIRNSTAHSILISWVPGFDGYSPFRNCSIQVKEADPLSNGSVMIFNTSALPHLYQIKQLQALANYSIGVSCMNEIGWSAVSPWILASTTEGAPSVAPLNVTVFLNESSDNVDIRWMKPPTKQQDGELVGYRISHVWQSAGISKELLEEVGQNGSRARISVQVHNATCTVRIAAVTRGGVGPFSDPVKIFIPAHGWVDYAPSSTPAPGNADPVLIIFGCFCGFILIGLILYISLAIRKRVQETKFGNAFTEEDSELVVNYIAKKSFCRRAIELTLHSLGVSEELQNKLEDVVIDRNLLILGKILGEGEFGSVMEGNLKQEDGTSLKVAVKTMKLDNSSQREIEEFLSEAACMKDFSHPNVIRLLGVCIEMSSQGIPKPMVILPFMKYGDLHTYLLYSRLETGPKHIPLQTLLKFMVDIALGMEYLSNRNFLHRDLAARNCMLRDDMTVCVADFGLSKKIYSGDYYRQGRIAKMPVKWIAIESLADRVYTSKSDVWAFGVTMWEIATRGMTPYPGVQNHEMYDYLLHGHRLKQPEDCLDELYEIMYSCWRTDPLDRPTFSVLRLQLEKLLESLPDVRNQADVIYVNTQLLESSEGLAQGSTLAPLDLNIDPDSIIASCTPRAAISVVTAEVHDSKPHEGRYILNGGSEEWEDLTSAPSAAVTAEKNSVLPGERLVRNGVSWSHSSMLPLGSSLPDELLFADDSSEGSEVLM
UniProt Q12866, 528-999 limits assumed: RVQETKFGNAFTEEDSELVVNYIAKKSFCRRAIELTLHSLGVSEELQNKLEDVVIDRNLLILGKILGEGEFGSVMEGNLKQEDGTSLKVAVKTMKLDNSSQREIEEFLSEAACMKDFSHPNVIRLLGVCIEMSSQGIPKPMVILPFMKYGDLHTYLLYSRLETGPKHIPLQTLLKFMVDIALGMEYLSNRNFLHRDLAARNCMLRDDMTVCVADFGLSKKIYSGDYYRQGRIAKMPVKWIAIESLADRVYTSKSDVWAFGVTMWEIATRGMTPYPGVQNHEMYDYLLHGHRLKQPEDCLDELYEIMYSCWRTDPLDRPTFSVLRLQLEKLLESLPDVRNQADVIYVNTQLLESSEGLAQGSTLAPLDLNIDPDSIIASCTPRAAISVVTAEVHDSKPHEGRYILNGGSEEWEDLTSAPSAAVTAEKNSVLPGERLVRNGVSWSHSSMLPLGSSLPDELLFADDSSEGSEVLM
UniProt P08581, 25-1390 limits assumed: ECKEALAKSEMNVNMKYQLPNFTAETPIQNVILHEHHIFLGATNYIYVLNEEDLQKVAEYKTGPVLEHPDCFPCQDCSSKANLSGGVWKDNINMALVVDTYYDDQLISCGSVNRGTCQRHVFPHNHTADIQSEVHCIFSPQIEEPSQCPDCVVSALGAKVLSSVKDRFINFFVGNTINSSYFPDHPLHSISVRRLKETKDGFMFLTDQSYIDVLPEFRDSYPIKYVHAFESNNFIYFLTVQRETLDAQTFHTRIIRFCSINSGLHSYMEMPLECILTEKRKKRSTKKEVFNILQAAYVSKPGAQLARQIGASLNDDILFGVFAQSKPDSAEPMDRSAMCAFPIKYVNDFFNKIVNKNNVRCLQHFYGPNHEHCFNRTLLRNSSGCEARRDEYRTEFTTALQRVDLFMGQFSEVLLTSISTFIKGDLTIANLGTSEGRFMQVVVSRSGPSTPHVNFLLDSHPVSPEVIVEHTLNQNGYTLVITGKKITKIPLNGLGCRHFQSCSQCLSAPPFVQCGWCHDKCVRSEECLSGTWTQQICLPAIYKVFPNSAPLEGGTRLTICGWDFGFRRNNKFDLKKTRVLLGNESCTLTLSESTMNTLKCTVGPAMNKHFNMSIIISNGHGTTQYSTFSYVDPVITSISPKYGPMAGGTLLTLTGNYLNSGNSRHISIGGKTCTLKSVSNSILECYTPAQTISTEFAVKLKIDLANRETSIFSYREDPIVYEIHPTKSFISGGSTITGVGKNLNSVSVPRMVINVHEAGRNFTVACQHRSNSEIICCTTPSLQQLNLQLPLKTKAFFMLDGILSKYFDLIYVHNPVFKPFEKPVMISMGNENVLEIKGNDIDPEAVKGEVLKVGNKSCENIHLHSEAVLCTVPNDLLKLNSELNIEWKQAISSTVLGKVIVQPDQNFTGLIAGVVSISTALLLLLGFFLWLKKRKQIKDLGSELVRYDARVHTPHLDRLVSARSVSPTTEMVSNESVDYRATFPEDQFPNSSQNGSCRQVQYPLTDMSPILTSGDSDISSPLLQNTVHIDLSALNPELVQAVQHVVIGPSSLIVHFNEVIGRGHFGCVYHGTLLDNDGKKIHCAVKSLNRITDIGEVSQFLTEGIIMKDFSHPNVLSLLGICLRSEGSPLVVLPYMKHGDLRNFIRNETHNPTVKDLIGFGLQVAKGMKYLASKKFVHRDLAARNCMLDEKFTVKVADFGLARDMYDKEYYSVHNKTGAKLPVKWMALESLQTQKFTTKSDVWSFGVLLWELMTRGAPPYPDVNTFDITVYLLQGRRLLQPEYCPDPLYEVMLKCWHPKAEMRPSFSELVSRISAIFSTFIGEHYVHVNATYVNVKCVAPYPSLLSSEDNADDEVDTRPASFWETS
UniProt P08581, 956-1390 limits assumed: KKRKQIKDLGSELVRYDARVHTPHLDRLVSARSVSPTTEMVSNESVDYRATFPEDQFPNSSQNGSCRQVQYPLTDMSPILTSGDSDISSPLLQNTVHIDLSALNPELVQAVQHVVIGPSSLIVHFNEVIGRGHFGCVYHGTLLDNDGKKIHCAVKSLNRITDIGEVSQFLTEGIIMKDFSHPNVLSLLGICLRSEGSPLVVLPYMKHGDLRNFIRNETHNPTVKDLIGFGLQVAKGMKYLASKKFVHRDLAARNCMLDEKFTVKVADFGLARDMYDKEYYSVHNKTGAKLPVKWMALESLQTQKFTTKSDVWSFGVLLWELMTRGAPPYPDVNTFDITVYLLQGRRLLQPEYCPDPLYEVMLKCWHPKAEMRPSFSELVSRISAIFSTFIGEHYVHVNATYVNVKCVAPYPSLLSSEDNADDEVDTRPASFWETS
UniProt P35968, 20-1356 limits assumed: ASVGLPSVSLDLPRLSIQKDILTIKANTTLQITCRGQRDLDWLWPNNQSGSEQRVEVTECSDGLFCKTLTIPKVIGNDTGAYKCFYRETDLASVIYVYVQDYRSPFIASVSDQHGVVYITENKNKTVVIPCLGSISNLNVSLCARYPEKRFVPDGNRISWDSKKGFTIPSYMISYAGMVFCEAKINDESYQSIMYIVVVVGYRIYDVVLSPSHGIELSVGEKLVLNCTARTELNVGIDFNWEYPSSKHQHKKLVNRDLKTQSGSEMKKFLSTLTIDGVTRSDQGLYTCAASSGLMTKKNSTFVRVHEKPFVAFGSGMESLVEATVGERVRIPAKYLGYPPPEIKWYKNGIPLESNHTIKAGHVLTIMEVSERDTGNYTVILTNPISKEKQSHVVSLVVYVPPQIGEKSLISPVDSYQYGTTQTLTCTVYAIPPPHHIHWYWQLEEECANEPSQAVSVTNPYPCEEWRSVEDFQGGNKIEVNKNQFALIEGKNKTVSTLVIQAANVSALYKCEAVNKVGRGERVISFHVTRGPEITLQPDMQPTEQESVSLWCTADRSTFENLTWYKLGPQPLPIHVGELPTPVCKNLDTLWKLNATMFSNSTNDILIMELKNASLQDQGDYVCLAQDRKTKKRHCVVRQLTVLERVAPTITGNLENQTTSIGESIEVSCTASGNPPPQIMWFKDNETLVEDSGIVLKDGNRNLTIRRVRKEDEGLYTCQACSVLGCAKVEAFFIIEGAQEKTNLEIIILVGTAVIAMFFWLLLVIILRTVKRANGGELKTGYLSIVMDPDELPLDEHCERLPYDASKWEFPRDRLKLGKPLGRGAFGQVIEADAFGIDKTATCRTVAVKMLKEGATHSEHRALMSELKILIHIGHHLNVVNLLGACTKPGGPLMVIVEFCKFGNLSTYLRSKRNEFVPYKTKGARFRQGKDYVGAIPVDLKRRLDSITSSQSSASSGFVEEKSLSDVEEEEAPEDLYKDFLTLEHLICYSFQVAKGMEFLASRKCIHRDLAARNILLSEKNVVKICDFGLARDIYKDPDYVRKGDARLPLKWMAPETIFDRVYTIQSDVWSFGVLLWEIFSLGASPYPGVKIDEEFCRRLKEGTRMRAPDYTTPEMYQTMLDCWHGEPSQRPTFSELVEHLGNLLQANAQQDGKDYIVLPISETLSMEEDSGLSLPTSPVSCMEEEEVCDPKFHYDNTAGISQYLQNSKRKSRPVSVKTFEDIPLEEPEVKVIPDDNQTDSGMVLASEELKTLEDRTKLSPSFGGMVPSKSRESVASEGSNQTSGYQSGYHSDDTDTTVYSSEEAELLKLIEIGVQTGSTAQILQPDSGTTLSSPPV
UniProt P35968, 790-1356 limits assumed: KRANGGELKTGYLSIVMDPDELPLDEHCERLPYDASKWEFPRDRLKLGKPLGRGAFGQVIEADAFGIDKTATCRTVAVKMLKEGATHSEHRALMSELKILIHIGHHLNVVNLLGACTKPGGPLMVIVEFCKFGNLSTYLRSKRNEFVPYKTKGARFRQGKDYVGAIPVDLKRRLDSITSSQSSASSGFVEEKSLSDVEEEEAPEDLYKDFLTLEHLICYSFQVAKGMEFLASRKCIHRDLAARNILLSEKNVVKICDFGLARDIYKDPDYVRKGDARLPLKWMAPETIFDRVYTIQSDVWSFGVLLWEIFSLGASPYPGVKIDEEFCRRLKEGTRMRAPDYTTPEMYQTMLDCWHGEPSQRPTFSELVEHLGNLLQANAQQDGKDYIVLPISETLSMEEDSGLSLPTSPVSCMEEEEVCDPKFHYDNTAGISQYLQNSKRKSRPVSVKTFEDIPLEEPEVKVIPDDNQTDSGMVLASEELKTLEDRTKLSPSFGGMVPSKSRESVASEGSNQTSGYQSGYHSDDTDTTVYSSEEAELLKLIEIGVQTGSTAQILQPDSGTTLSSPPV

In experiment [1] the target is T1, AXL (Homo sapiens, UniProt P30530). The experiment can be described thus: AXL autophosphorylation ELISA in A-172 cells. Conditions: read-out: Axl IC50, Table 3 Cellular Activities, Gas6-stimulated, phospho-AXL ELISA. As to the method: A-172 glioblastoma cells (ATCC #CRL-1620) were seeded at 2.5×10^5 cells/well onto 24-well plates (Greiner #662165), in DMEM (Thermo Fisher #11995-040) containing 10% FBS (Thermo Fisher #26140-079), 1% MEM NEAA (Thermo Fisher #11140-050), 1% GlutaMax (Thermo Fisher #35050-061), and 1% Penicillin Streptomycin (Thermo Fisher #15140-122). A-172 cells were incubated at 37° C., 5% CO2 for 24 h and then starved for 24 h in serum-free medium. Test compounds were serially diluted to produce an 8-point dose curve in fresh serum-free medium to a final concentration of 0.3% DMSO (vehicle) and added to the cells and incubated for 1 h. Cells were then stimulated with 1 μg/mL recombinant human Gas6 (R&D Systems #885-GSB-500) for 15 min, washed with cold PBS, and immediately lysed with 150 μL of cold 1× lysis buffer [20 mM Tris, 137 mM sodium chloride, 2 mM EDTA, 10% glycerol, 1% NP-40 alternative, 1 mM activated sodium orthovanadate, 1 mM PefaBloc SC (Sigma-Aldrich #11429868001), protease/phosphatase inhibitor tablet (Thermo Fisher #A32959)]. Lysates were collected and 100 μL/well added into the human phospho-AXL DuoSet IC ELISA (R&D Systems #DYC2228-2). Assay was performed according to manufacturer's instructions and sample phospho-AXL concentrations were extrapolated using human phospho-AXL control (R&D Systems #841645) as a standard. Positive control wells (100% activity) contained Gas6-stimulated, DMSO-treated cell lysates. Negative control wells (0% activity) contained Gas6-stimulated, reference inhibitor-treated cell lysates. IC50 values were calculated by nonlinear regression analysis using a 4-parameter logistic curve fit in ActivityBase XE (IDBS).

Experiment [2] addresses T2, Mer (Homo sapiens, UniProt Q12866). Kind of experiment: Mer autophosphorylation ELISA in transient transfected 293A cells. Conditions: read-out: Mer IC50; Table 3 Cellular Activities; MERTK-transfected 293A cells, phospho-Mer ELISA. As for the experimental part:
293A cells (Thermo Fisher #R70507) were seeded at 1.5×10^6 cells/well onto 100 mm dish (Greiner #664169), in DMEM (Thermo Fisher #11995-040) containing 10% FBS (Thermo Fisher #26140-079), 1% MEM NEAA (Thermo Fisher #11140-050), 1% GlutaMax (Thermo Fisher #35050-061), and 1% Penicillin Streptomycin (Thermo Fisher #15140-122). 293A cells were incubated at 37° C., 5% CO2 for 24 h and then transfected with 6μg MERTK DNA (Genecopoeia #EX-Z8208-M02) using TransIT LT1 transfection reagent (Mirus-Bio #MIR2305). After 24 h incubation, the transfected 293A cells were seeded at 1×10^5 cells/well onto 96-well plates (Corning #3904) in DMEM growth medium overnight. Test compounds were serially diluted to produce an 8-point dose curve in fresh serum-free medium to a final concentration of 0.3% DMSO (vehicle) and added to the cells and incubated for 1 h. Cells were then immediately lysed with 150 μL of cold 1× lysis buffer […], 137 mM sodium chloride, 2 mM EDTA, 10% glycerol, 1% NP-40 alternative, 1 mM activated sodium orthovanadate, 1 mM PefaBloc SC (Sigma-Aldrich #11429868001), protease/phosphatase inhibitor tablet (Thermo Fisher #A32959)]. Lysates were clarified by centrifugation and 50 μL/well added into the human phospho-Mer DuoSet IC ELISA (R&D Systems #DYC2579-2). Assay was performed according to manufacturer's instructions and sample phospho-Mer concentrations were extrapolated using human phospho-Mer control (R&D Systems #841793) as a standard. Positive control wells (100% activity) contained DMSO-treated cell lysates. Negative control wells (0% activity) contained reference inhibitor-treated cell lysates. IC50 values were calculated by nonlinear regression analysis using a 4-parameter logistic curve fit in ActivityBase XE (IDBS).

Experiment [3] concerns the target T3, Met (Homo sapiens, UniProt P08581). Kind of experiment: Met autophosphorylation ELISA in PC-3 cells. Conditions: read-out: c-Met IC50, Table 3 Cellular Activities, HGF-stimulated, phospho-Met ELISA. As to the method:
PC-3 prostate cancer cells (ATCC #CRL-1435) were seeded at 4×10^4 cells/well onto 24-well plates (Greiner #662165), in DMEM (Thermo Fisher #11995-040) containing 10% FBS (Thermo Fisher #26140-079), 1% MEM NEAA (Thermo Fisher #11140-050), 1% GlutaMax (Thermo Fisher #35050-061), and 1% Penicillin Streptomycin (Thermo Fisher #15140-122). PC-3 cells were incubated at 37° C., 5% CO2 for 24 h and then starved for 3 h in serum-free medium. Test compounds were serially diluted to produce an 8-point dose curve in fresh serum-free medium to a final concentration of 0.3% DMSO (vehicle) and added to the cells and incubated for 1 h. Cells were then stimulated with 100 ng/mL recombinant human HGF (R&D Systems #294-HG-250) for 10 min, washed with cold PBS, and immediately lysed with 130 μL of cold 1× lysis buffer [20 mM Tris, 137 mM sodium chloride, 2 mM EDTA, 10% glycerol, 1% NP-40 alternative, 1 mM activated sodium orthovanadate, 1 mM PefaBloc SC (Sigma-Aldrich #11429868001), protease/phosphatase inhibitor tablet (Thermo Fisher #A32959)]. Lysates were clarified by centrifugation and 100 μL/well added into the PathScan phospho-Met (panTyr) Sandwich ELISA (Cell Signaling Technology #7333). Assay was performed according to manufacturer's instructions. Positive control wells (100% activity) contained HGF-stimulated, DMSO-treated cell lysates. Negative control wells (0% activity) contained HGF-stimulated, reference inhibitor-treated cell lysates. IC50 values were calculated by nonlinear regression analysis using a 4-parameter logistic curve fit in ActivityBase XE (IDBS).

The target in experiment [4] is T4, KDR (Homo sapiens, UniProt P35968). Kind of experiment: KDR autophosphorylation ELISA in HUVEC cells. To be noted: read-out: KDR IC50, Table 3 Cellular Activities, VEGF165-stimulated, phospho-KDR ELISA. As for the experimental part: Human umbilical vein endothelial cells or HUVEC (Lonza #C2519A) were seeded at 2×10^4 cells/well onto 96-well plates (Corning #3904), in EGM-2 growth medium (Lonza #CC-3162) containing 1% Penicillin Streptomycin (Thermo Fisher #15140-122). HUVEC cells were incubated at 37° C., 5% CO2 for 24 h and then starved for 24 h in serum-free EBM-2 basal medium (Lonza #CC-3156) containing 1% Penicillin Streptomycin. Test compounds were serially diluted to produce an 8-point dose curve in fresh serum-free medium to a final concentration of 0.3% DMSO (vehicle) and added to the cells and incubated for 1 h. Cells were then stimulated with 100 ng/mL recombinant human VEGF165 (R&D Systems #293-VE-500) for 5 min, washed with cold PBS, and immediately lysed with 130 μL of cold 1× lysis buffer [20 mM Tris, 137 mM sodium chloride, 2 mM EDTA, 10% glycerol, 1% NP-40 alternative, 1 mM activated sodium orthovanadate, 1 mM PefaBloc SC (Sigma-Aldrich #11429868001), protease/phosphatase inhibitor tablet (Thermo Fisher #A32959)]. Lysates were collected and 100 μL/well added into the human phospho-KDR DuoSet IC ELISA (R&D Systems #DYC1766-2). Assay was performed according to manufacturer's instructions and sample phospho-KDR concentrations were extrapolated using human phospho-KDR control (R&D Systems #841421) as a standard. Positive control wells (100% activity) contained VEGF165-stimulated, DMSO-treated cell lysates. Negative control wells (0% activity) contained non-stimulated cell lysates. IC50 values were calculated by nonlinear regression analysis using a 4-parameter logistic curve fit in ActivityBase XE (IDBS).

Experiment [5] concerns the target T1, AXL. The experiment can be described thus: Human AXL kinase assay (HTRF KinEase). The format is biochemical. Conditions: read-out: Axl IC50, Table 2 Biological Activities, ATP at Km (1.0 μM). As to the method:
(§1) Kinase activity and compound inhibition were investigated using the HTRF® KinEase assay (Cisbio Cat #62TKOPEB) per manufacturer's instructions. In short, compounds were delivered in 300 nL volumes at 10 different concentrations in DMSO (3% final) to empty 384-well assay plates (Corning cat #3824). A mixture of enzyme, 1 μM biotynlated peptide substrate, and buffer in 10 μL volume was added. The assay was started upon the addition of ATP (at Km). The 10 μL reaction was incubated at room temperature. The reaction was stopped upon the addition of detection buffer containing streptavidin-XL665 (5 μL) and TK antibody-Eu3+ (5 μL). After a 60 min incubation at room temperature, the fluorescence at 665 nm and 620 nm was read on an Envision microplate reader (Perkin Elmer). Kinase activity normalized to DMSO (100% activity) and reference compound at 1 μM and (0% activity) was calculated using the fluorescence ratio […]. IC50 values were calculated by nonlinear regression analysis using a 4-parameter logistic curve fit in ActivityBase XE (IDBS).
Human AXL (residues 464-885; CarnaBio, 1 ng/ well) was incubated with enzymatic buffer (Cisbio) supplemented with 5 mM MgCl2, 1 mM DTT, and Supplemental Enzymatic Buffer (SEB; Cisbio). The mixture was added to the pre-plated compounds. […] The kinase activity was calculated as stated above and the IC50 values were reported.

For experiment [6], the target named is T2, Mer. Kind of experiment: Human MER kinase assay (HTRF KinEase). Conditions: read-out: Mer IC50, Table 2 Biological Activities, ATP at Km (40 μM). As for the experimental part:
as §1
Human MER (residues 528-999; CarnaBio, 1 ng/ well) was incubated with enzymatic buffer (Cisbio) supplemented with 5 mM MgCl2 and 1 mM DTT. The mixture was added to the pre-plated compounds. The reaction was initiated upon addition of ATP at Km (40 μM). […] The kinase activity was calculated as stated above and the IC50 values were reported.

The target of experiment [7] is T3, Met. The experiment can be described thus: Human MET kinase assay (HTRF KinEase). To be noted: read-out: c-Met IC50, Table 2 Biological Activities, ATP at Km (3.0 μM). As to the method: as §1
Human MET (residues 956-1390; CarnaBio, 0.1 ng/ well) was incubated with enzymatic buffer (Cisbio) supplemented with 5 mM MgCl2, 1 mM DTT and 1 mM MnCl2. The mixture was added to the pre-plated compounds. […] The kinase activity was calculated as stated above and the IC50 values were reported.

For experiment [8], the target named is T4, KDR. The experiment can be described thus: Human KDR kinase assay (HTRF KinEase). Conditions: read-out: KDR IC50, Table 2 Biological Activities, ATP at Km (4.0 μM). As for the experimental part: as §1
Human KDR (residues 790-1356; CarnaBio, 0.1 ng/ well) was incubated with enzymatic buffer (Cisbio) supplemented with 5 mM MgCl2, 1 mM MnCl2, and 1 mM DTT. The mixture was added to the pre-plated compounds. […] The kinase activity was calculated as stated above and the IC50 values were reported.

For `COCc1nc(C)c(-c2ccco2)c(O)c1C(=O)Nc1ccc(Oc2ccnc3cc(OC)c(OC)nc23)c(F)c1`, the IC50 in experiment [1], in experiment [2], in experiment [3] and in experiment [4] was below 100 nM throughout.
On to `COc1cc2c(Oc3ccc(NC(=O)c4ccc(C)n(-c5ccc(F)cn5)c4=O)cc3F)ccnc2cn1`, for which the concentration for half-maximal inhibition (IC50) in experiment [1], in experiment [2], in experiment [3] and in experiment [4] was below 100 nM throughout.
Take `COc1cnc2c(Oc3ccc(NC(=O)c4ccc(C)n(-c5ccc(F)cn5)c4=O)cc3)ccnc2c1`: the IC50 was below 100 nM in experiment [5]; below 100 nM in experiment [6]; below 100 nM in experiment [7]; 300 to 1000 nM in experiment [8]; below 100 nM in experiment [1]; below 100 nM in experiment [2]. The IC50 in experiment [3] and in experiment [4] was below 100 nM each time.
